Reference: patent publication US7612201B2, “Pyrazole compounds” (Vernalis (Cambridge) Limited, priority 2002, dated 2009)
pIC50: −log10 of the molar value.

Chains of the proteins cited; added tags and fusions are not shown.
UniProt P02829, whole entry: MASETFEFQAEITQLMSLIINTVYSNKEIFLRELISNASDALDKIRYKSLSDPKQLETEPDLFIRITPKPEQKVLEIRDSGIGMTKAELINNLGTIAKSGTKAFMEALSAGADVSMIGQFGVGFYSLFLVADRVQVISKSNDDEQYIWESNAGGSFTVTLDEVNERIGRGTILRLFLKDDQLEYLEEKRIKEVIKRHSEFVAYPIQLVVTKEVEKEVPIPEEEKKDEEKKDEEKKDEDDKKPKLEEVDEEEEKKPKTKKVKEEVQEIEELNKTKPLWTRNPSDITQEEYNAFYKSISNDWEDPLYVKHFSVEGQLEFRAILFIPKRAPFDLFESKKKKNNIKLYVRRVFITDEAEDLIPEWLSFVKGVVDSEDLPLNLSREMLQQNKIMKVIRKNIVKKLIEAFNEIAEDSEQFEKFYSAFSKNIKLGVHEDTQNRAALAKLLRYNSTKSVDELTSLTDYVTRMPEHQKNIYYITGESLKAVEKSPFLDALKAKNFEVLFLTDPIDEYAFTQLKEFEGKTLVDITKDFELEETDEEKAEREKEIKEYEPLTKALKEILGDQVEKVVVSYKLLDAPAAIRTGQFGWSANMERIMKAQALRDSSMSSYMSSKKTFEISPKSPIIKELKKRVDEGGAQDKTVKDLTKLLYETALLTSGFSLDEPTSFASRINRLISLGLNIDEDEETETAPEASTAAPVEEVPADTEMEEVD

Molecular target: T1, yeast HSP90 (Saccharomyces cerevisiae, UniProt P02829)
T1 construct: made in house; host or cells: E. coli
Assay: Malachite green ATPase assay
Type: biochemical
Settings: activity range
From the text: The intrinsic ATPase activity of HSP90 may be measured using yeast HSP90 as a model system. The assay, based on the use of malachite green for the measurement of inorganic phosphate, was used to test the HSP90 inhibitory activity of the compounds of the Examples herein.
Malachite Green ATPase Assay
Chemicals are of the highest purity commercially available and all aqueous solutions are made up in AR water. Because of the need to minimise contamination with inorganic phosphate, precautions should be taken with solutions and apparatus used in the assays. Glassware and pH meters are rinsed with double distilled or deionised water before use and, wherever possible, plastic ware should be used. Gloves are worn for all procedures. • (1) Greiner 384-well (Greiner 781101) or Costar 384-well flat-bottomed polystyrene multiwell plates (VWR). • (2) Assay buffer of (a) 100 mM Tris-HCl, pH 7.4, (b) 150 mM KCl, (c) 6 mM MgCl2. Stored at room temperature. • (3) 0.0812% (w/v) malachite green (M 9636, Sigma Aldrich Ltd., Poole, UK). […]
Method • 1. […] Measure Absorbance at 620 nm using a suitable plate reader (e.g. Victor, Perkin Elmer Life Sciences, Milton Keynes, UK). […]

Compound	pIC50
CS(=O)(=O)c1ccc(CN2CCN(c3c[nH]nc3-c3cc(Cl)c(O)cc3O)CC2)cc1 [Example 12]	> 4.30
Oc1cc(O)c(-c2n[nH]cc2N2CCN(Cc3ccccc3)CC2)cc1Cl [Example 24]	> 4.30
